# Binding of CDR-mutated scFvs to a peptide of the spike HR2 region

Data: MIT Lincoln Laboratory AlphaSeq set, Li et al. 2023, doi:10.1038/s41467-023-39022-2, as distributed in FLAb.

Binding partner: SARS-CoV-2 spike HR2 peptide, sequence PDVDLGDISGINAS.

The variants keep the light chain, the linker and the frameworks of Ab-14 (scFv order VH, three GGGGS repeats, VL).
VH: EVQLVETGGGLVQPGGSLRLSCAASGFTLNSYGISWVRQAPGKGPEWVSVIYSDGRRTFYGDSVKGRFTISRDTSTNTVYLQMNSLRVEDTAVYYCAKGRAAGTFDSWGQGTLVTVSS
VL: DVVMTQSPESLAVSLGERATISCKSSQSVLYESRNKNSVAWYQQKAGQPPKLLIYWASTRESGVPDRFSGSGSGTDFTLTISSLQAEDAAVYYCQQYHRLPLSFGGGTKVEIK

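The parent was found by panning a naive human phage display library on the peptide. These sequences belong to a second round, designed from the earlier measurements on random variants of the parent. Group labels follow the data file (Ctrl: baseline library sampled from a position-specific scoring matrix, with some repeated check sequences; En: ensemble of fine-tuned language models; HC: hill climbing; Gen: genetic algorithm; Gibbs: Gibbs sampling; a sequence that several methods proposed may carry one label only). The assay is AlphaSeq: two haploid yeast populations carry antibody and antigen on their surface. After mating in shaken culture at 30 °C for 16 h, diploids were selected and their barcode pairs sequenced. Read counts were normalised to the haploid input and turned into Kd by a linear fit to BCL2-family pairs of known affinity, for each replicate. Each pool was mated in six replicate cultures.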

The parent's heavy chain CDRs are GFTLNSYGIS, VIYSDGRRTFYGDSVK, GRAAGTFDS; each variant's own CDRs replace them letter for letter.
Variants here have more than six changes.
Affinities are written as log10 Kd with Kd in nM; a lower number is a better binder.
A mean of the replicates is given; it leaves out those without a signal.
"nd" means that the variant was in the library but no mating with the target was seen in any replicate; the authors take this as a sign of poor binding, and no number exists.
Entries are sorted by rising average, undetected variants last.
The parent sequence was in this pool as ten entries: three were never detected, three once, and four in most replicates, with averages from 0.34 to 2.37.
The authors averaged sequences with at least three values out of six and counted those with two or fewer as poor binders.
Values of this round are not directly comparable with the first-round values of the same sequences.
Empty control strains, which show no peptide, gave a signal in 1% of pairings with all heavy chain designs; the median was 2.08 and 95% of these signals were weaker than 0.84. No background was subtracted. Also given: how often the same scFv was detected with the empty control strains.

CDR-H1	CDR-H2	CDR-H3	group	mean log10 Kd (nM)	detected	empty controls
GFDLNEYGIS	VIYADGKRTAYADKVK	GQNAGTFDV	En_Gen	-1.28	6 of 6	0 of 18
GFDLNEYGIS	VIYADGMRTAYTDSVK	GNEAGTFDT	En_HC	-1.19	6 of 6	0 of 18
GFDLNEYGIS	VIYADGMRTVYADSVK	GEVAGTFDV	En_Gen	-1.18	6 of 6	0 of 18
GFDLDEYGIS	VIYADGKRTFYADSVK	GENAGTFDI	En_Gen	-0.88	6 of 6	0 of 18
GFDLNEYGIS	VIYADGLRTSYADSVK	GELAGTFDQ	En_HC	-0.86	6 of 6	0 of 18
GFDLNEYGIS	VIYADGMRTAYTDSVK	GHAAGTFDL	En_HC	-0.71	6 of 6	0 of 18
GFDLNEYGIS	VIYADGMRTFYTDSVK	GEVAGTFDI	En_HC	-0.67	6 of 6	1 of 18
GFDLNEYGIS	VIYADGRRTFYADSVK	GNLAGTFDM	En_HC	-0.61	6 of 6	0 of 18
GFDLNEYGIS	VIYADGQRTFYADNVK	GEVAGTFDV	En_HC	-0.57	6 of 6	0 of 18
GFDLNEYGIS	VIYADGSRTAYADSVK	GEAAGTFDQ	En_HC	-0.55	6 of 6	0 of 18
GFDLNEYGIS	VIYADGMRTAYSDSVK	GNEAGTFDM	En_Gen	-0.54	6 of 6	0 of 18
GFDLNEYGIS	VIYADGRRTFYTDNVK	GQVAGTFDS	En_HC	-0.49	6 of 6	0 of 18
GFDLNEYGIS	VIYADGKRTAYIDSVK	GHAAGTFDV	En_HC	-0.48	6 of 6	0 of 18
GFDLNEYGIS	VIYADGMRTAYANDVK	GENAGTFDI	En_Gen	-0.45	6 of 6	0 of 18
GFNLDEYGIS	VIYADGVRTAYADSVK	GNVAGTFDI	En_Gen	-0.37	6 of 6	0 of 18
GFDLNEYGIS	VIYADGQRTYYADSVK	GNNAGTFDI	En_Gen	-0.34	6 of 6	0 of 18
GFDLNEYGIS	VIYADGRRTAYADSVK	GQLAGTFSV	En_HC	-0.33	6 of 6	1 of 18
GFDLDEYGIS	VIYADGMRQAYADSVK	GNVAGTFDL	En_Gen	-0.32	6 of 6	0 of 18
GFDLNEYGIS	VIYADGKRTAYADSVK	GANAGTFDI	En_Gen	-0.32	6 of 6	0 of 18
GFDLNEYGIS	VIYADGRRTFYADSVK	GANGGTFDV	En_HC	-0.32	6 of 6	0 of 18
GFDLNEYGIS	VIYADGMRTAYSDSVK	GNVAGTFDT	En_Gen	-0.31	6 of 6	0 of 18
GFDLNEYGIS	VIYADGLRTAYSDSVK	GENAGTFDI	En_Gen	-0.31	6 of 6	0 of 18
GFDLNEYGIS	VIYADGMRTAYIDSVK	GNTAGTFDV	En_Gen	-0.30	6 of 6	0 of 18
GFDLNEYGIS	VIYADGRRTAYIDSVK	GEIAGTFDV	En_HC	-0.30	6 of 6	0 of 18
GFDLNEYGIS	VIYADGMRTAYQDSVK	GENAGTFDL	En_Gen	-0.28	6 of 6	0 of 18
GFNLNEYGIS	VIYADGRRTFYADSVK	GEIAGTFDQ	En_HC	-0.27	6 of 6	0 of 18
GFDLNEYGIS	VIYADGMRTSYADDVK	GENAGTFDQ	En_Gen	-0.25	6 of 6	0 of 18
GFDLNEYGIS	VIYADGVRTAYSDSVK	GTNAGTFDV	En_Gen	-0.23	6 of 6	0 of 18
GFDLEDYGIS	VIYADGQRTAYADSVK	GNNAGTFDV	En_Gen	-0.22	6 of 6	0 of 18
GFDLNEYGIS	VIYADGVRTAYADSVK	GNVAGTFDI	En_Gen	-0.19	6 of 6	0 of 18
SFSLDDYGIS	VIYADGMRKAYVDEVK	GYVAGTFDI	En_Gibbs	-0.18	6 of 6	0 of 18
GFDLNEYGIS	VIYADGSRTAYADDVK	GEVAGTFDI	En_Gen	-0.17	6 of 6	0 of 18
GFDLDEYGIS	VIYADGRRTFYADSVK	GTNAGTFLT	En_HC	-0.15	6 of 6	0 of 18
GFDLEDYGIS	VIYADGRRTAYSDSVK	GEVAGTFDV	En_Gen	-0.14	6 of 6	0 of 18
GFDLNEYGIS	VIYADGRRTFYADSVK	GQEAGTFTL	En_HC	-0.14	6 of 6	1 of 18
GFDLDEYGIS	VIYADGKRTAYADSVK	GEVAGTFDQ	En_Gen	0.04	6 of 6	0 of 18
GFDLNEYGIS	VIYADGMRTYYADNVK	GENAGTFDV	En_Gen	0.32	6 of 6	0 of 18
GFDLNEYGIS	VIYADGMRTSYADDVK	GNNAGTFDV	En_Gen	0.46	4 of 6	0 of 18
GFDLDEYGIS	VIYADGVRTAYADSVK	GNQAGTFDI	En_Gen	0.59	6 of 6	0 of 18
GFNLDEYGIS	VIYADGRRTFYADNVK	GEAGGTFDI	En_HC	0.66	6 of 6	0 of 18
GFDLDEYGIS	VIYADGMRTAYADNVK	GNQAGTFDV	En_Gen	0.86	6 of 6	1 of 18
GFDLNEYGIS	VIYADGQRTAYADNVK	GEVAGTFDM	En_Gen	1.33	1 of 6	0 of 18
GFDLEDYGIS	VIYADGMRTAYADSVK	GNNAGTFDV	En_Gen	1.50	4 of 6	0 of 18
GFDINEYGIS	VIYADGMRRAYSQSVK	GHGEDLSLD	En_Gibbs	2.02	2 of 6	1 of 18
GKSLDEYGIS	VIYADGMRAEYQNQVK	GTTGGDFFV	En_Gibbs	nd	0 of 6	0 of 18
GFDLNEYGIS	VIYADGVRTSYADDVK	GNVAGTFDV	En_Gen	nd	0 of 6	0 of 18
GFDLNEYGIS	VIYADGVRTFYADSVK	GNVAGTFDT	En_Gen	nd	0 of 6	0 of 18
GFDLNEYGIS	VIYADGLRTAYIDEVK	GKGDVIVGH	En_Gibbs	nd	0 of 6	2 of 18
GDDLNEYGIS	VIYADGRRSAYTDNVK	GHAGNIFMS	En_Gibbs	nd	0 of 6	1 of 18
GFNLDEYGIS	VIYADGRRVAYANAVK	GKNGMFFSF	En_Gibbs	nd	0 of 6	0 of 18
GFDLDEMGIS	VIYADGRRTAYSNAVK	GNNVYGLMS	En_Gibbs	nd	0 of 6	0 of 18
GFDLNEYGIS	VIYADGRRTAYSDSVK	GEVAGFFDF	En_HC	nd	0 of 6	1 of 18
GFDVDEQGIS	VIYADGLRSQYANSVK	GAIGGMFFQ	En_Gibbs	nd	0 of 6	0 of 18
GFKLDEYGIS	VIYADGQRKSYADSVK	GQINVYYTA	En_Gibbs	nd	0 of 6	0 of 18
GYDIEEYGIS	VIYADGKRNAYANMVK	GKWAGTFVD	En_Gibbs	nd	0 of 6	0 of 18
GFDLESYGIS	VIYADGMRVSYTNNVK	GQNVMISTA	En_Gibbs	nd	0 of 6	0 of 18
GFDLEEYGIS	VIYADGMRTQYINAVK	GIIVDNLDL	En_Gibbs	nd	0 of 6	0 of 18
GKDLDEYGIS	VIYADGMRTFYLNTVK	GEDGGDLNQ	En_Gibbs	nd	0 of 6	0 of 18
GFNLDEYGIS	VIYADGRRTAYADSVK	NSVMSGRVT	En_Gibbs	nd	0 of 6	1 of 18
GNDIQEYGIS	VIYADGQRVNAVSQVK	GKQAGTFNL	En_Gibbs	nd	0 of 6	0 of 18
GFTLNDYGIS	VIYSDGRRTAYLDSVK	GEAAQTFSQ	Ctrl	nd	0 of 6	0 of 18

A selection of 6 entries from above:

| CDR-H1 | CDR-H2 | CDR-H3 | group | mean log10 Kd (nM) | detected | empty controls |
|---|---|---|---|---|---|---|
| GFDLNEYGIS | VIYADGRRTFYADSVK | GQEAGTFTL | En_HC | -0.14 | 6 of 6 | 1 of 18 |
| GFDLNEYGIS | VIYADGRRTAYIDSVK | GEIAGTFDV | En_HC | -0.30 | 6 of 6 | 0 of 18 |
| GFDLNEYGIS | VIYADGQRTYYADSVK | GNNAGTFDI | En_Gen | -0.34 | 6 of 6 | 0 of 18 |
| GFDLNEYGIS | VIYADGVRTAYADSVK | GNVAGTFDI | En_Gen | -0.19 | 6 of 6 | 0 of 18 |
| GFDLNEYGIS | VIYADGQRTAYADNVK | GEVAGTFDM | En_Gen | 1.33 | 1 of 6 | 0 of 18 |
| GFDLNEYGIS | VIYADGMRTFYTDSVK | GEVAGTFDI | En_HC | -0.67 | 6 of 6 | 1 of 18 |